Data: patent publication US20160183564A1 (priority 2013, published 2016)
Like-named read-outs stand apart in the source and are kept apart here.

Tested on: VFA production
Conditions: average of three experiments

Compound | Effect on VFA production (% compared to control) (dose 75 μM) | Effect on VFA production (% compared to control) (dose 0.625 μM)
O=[N+]([O-])c1ccc(NCCO)cc1 [2-(4-Nitro-phenylamino)-ethanol] | −4% | –
O=[N+]([O-])OCCCO [3-nitrooxy propanol, 3-Nitrooxypropanol] | – | −2%
CCCNc1ccc([N+](=O)[O-])cc1 [(4-Nitro-phenyl)-propyl-amine] | −2% | –
